Entries after “also recorded” stand apart in the source; their conditions may differ.
Key:
[1] = system: female Sprague-Dawley rats; assay: Single dose neurotoxicity study: brain histopathology (neuronal necrosis in PCG/RSC); conditions: 1 mg/kg sc; for neuronal necrosis (Olney lesions) in the PCG/RSC: single and repeated dose studies
Description: In order to prepare for brain histopathology examination, all main study animals were perfused at necropsy. Prior to the perfusion, rats were anesthetized with isoflurane. After injection of 0.1 ml heparin, the blood of the rat was flushed out with a physiological saline solution by intraarterial insertion of a needle in the abdominal aorta. Thereafter the rat was perfused with glutaraldehyde 3% in potassium phosphate 0.09M and 1.4% sucrose. Due to logistic constraints at maximum 30 animals could undergo the whole-body perfusion procedure on a given day. Therefore, a staggered start of treatment was applied to all 5 groups of main study animals. Consequently, subgroups of 4 main study animals of the vehicle- and 36 and 54 mg-dosed groups, and 5 main study animals of the 72 mg-dosed and positive control groups, were dosed on 6 consecutive days, respectively.
The vehicle control, positive control, and esketamine HCl-dosed animals were sacrificed at either 48 hours (i.e., the first 12 or 15 rats per group) or 96 hours after the dose administration time (i.e., the last 12 or 15 rats per group). The brain tissue of the vehicle control-, positive control- and esketamine HCl-treated rats were processed at the same time and handled in the same way in batches of 4 or 5 animals per group.
Brain tissue was sampled and processed routinely. The trimmed and embedded tissue was sectioned and stained with hematoxylin-eosin (HE). Histoprocessing and staining were carried out in three batches of 4 animals per group (each batch thus containing 4 animals from vehicle control-, positive control- and the three esketamine HCl-treated groups). In the single dose study duplicate brain sections were stained with Fluoro-Jade (FJ).
Histopathological examination was performed on 7 levels of brain tissue according to Bolon (2013. Toxicol. Pathol. 41(7), 1028-1048) from the vehicle control-, positive control-, and high dose esketamine HCl-treated groups in the single dose study, and in all groups in the repeated dose study.
The microscopic finding of neuronal necrosis in the PCG/RSC of the brain was graded unilaterally according to the number of necrotic neurons observed over the total length of the PCG/RSC structure visible in the tissue section (usually around 3-5 mm) utilizing the following criteria: […]

[2] = system: female Sprague-Dawley rats; assay: 14-day repeated dose neurotoxicity study: brain histopathology (neuronal necrosis in PCG/RSC); conditions: 1 mg/kg sc

## (+)MK-801 maleate
[1]
  neuronal necrosis (Olney lesions) in the PCG/RSC: presence; also recorded: neuronal necrosis was observed; also recorded: all treated animals
[1]; listed as (+)MK801 maleate
  neuronal necrosis (Olney lesions) in the PCG/RSC: all rats
[1]; listed as (+)MK-801
  neuronal necrosis (Olney lesions) in the PCG/RSC: presence
[1]; single dose study
  animals with lesions scored marked: 25 out of 30
[2]
  animals with lesions scored marked: 7 out of 12

— patent US11883526B2 (priority 2019, dated 2024)
